Source: patent EP4834897A1, “COMPOUNDS WITH TWO AZAHETEROCYCLES SUBSTITUTED ISOINDOLINONE SKELETON AND USES THEREOF” (dated 2026)

The chains behind the UniProt entries cited, without tags or fusion partners.
UniProt Q96SW2, whole entry: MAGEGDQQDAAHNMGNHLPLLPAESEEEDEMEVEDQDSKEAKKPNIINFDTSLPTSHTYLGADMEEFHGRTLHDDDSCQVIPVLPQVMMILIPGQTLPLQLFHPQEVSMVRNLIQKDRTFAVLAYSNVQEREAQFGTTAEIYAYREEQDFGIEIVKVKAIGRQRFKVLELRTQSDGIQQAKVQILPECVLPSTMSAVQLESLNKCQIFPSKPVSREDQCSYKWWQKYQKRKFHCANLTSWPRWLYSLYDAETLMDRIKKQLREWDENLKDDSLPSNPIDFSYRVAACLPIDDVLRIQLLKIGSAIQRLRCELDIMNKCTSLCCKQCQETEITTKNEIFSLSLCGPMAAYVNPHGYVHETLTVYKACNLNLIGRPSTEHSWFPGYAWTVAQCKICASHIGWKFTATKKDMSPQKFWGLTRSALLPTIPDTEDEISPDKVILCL
UniProt Q13422, whole entry: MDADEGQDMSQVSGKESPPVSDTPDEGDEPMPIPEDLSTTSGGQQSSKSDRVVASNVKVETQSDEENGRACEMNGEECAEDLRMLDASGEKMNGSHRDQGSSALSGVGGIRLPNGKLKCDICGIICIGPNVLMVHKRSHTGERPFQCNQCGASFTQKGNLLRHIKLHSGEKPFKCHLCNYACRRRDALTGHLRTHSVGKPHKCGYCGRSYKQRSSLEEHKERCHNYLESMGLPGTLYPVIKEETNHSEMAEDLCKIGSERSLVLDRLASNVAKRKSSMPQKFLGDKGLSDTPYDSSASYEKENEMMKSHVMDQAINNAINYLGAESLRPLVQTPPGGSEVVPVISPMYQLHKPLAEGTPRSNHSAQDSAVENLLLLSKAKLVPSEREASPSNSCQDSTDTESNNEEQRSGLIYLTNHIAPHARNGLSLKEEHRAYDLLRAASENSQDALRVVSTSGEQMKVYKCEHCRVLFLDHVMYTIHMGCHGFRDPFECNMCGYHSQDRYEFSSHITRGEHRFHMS
UniProt P30291, whole entry: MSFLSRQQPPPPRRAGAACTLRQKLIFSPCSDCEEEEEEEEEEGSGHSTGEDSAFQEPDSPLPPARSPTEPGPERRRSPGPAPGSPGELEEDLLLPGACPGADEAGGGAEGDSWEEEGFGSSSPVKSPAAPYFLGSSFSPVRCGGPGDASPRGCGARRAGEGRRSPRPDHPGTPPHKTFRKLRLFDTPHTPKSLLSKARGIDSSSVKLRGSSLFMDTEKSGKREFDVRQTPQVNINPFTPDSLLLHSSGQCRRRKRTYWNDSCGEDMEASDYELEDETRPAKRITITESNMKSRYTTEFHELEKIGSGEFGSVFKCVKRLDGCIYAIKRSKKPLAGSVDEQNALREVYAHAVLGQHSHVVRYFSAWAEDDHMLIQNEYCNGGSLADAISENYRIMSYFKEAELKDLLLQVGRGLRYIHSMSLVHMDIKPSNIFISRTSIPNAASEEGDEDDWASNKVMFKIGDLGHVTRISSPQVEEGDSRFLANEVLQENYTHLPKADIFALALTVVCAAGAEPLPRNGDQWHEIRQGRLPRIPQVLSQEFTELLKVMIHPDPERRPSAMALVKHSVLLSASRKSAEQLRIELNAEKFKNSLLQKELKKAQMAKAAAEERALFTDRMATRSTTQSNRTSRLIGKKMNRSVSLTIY
UniProt P15170, whole entry: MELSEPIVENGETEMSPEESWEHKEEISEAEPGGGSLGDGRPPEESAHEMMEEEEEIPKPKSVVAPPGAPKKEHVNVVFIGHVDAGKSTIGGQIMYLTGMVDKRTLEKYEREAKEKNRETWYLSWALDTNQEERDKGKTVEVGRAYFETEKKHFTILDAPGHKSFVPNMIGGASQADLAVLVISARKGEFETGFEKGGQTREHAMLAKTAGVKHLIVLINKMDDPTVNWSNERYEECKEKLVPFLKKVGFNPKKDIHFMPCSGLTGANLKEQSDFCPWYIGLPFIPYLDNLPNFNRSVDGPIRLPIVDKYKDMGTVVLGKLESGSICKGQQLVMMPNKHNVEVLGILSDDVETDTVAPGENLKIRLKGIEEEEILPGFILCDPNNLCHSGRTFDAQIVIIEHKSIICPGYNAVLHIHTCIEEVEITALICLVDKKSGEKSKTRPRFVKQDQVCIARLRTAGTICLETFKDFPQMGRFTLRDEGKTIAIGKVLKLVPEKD
UniProt Q9UKT9, whole entry: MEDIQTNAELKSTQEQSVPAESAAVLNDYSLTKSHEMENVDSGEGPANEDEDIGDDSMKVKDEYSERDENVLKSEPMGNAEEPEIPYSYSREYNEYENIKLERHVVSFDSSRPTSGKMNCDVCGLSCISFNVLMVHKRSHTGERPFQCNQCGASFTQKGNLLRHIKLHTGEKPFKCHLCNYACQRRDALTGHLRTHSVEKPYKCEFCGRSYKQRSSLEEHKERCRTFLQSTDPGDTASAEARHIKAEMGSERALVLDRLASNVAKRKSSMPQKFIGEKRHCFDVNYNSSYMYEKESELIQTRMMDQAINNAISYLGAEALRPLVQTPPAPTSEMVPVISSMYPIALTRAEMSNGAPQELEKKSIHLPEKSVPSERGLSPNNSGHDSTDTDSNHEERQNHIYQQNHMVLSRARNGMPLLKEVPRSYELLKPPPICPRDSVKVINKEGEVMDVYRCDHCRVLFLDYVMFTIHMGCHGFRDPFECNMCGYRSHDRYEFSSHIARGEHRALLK
UniProt Q9UKS7, whole entry: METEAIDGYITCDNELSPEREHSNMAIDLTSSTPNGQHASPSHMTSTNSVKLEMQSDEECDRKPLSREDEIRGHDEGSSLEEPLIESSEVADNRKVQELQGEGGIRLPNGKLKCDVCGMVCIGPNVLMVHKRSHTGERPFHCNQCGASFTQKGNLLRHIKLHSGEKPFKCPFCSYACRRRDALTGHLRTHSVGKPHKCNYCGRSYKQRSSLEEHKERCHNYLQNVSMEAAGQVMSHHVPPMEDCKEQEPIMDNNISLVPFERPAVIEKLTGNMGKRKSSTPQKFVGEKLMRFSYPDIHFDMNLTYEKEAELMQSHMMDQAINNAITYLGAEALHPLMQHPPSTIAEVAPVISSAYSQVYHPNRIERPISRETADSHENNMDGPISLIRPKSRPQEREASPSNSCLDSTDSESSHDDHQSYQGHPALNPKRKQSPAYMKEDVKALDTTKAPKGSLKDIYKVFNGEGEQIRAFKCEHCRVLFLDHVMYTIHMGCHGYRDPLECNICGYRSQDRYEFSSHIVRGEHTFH
UniProt P48729, whole entry: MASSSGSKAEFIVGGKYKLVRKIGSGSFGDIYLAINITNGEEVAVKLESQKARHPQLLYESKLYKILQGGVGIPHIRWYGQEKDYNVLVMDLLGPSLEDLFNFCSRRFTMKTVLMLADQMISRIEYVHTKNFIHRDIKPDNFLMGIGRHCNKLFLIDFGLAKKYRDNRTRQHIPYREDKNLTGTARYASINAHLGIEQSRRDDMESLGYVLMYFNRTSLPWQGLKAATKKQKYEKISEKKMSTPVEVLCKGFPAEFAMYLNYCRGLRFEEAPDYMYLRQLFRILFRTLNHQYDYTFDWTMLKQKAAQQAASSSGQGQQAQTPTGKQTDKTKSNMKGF
UniProt Q16531, whole entry partner: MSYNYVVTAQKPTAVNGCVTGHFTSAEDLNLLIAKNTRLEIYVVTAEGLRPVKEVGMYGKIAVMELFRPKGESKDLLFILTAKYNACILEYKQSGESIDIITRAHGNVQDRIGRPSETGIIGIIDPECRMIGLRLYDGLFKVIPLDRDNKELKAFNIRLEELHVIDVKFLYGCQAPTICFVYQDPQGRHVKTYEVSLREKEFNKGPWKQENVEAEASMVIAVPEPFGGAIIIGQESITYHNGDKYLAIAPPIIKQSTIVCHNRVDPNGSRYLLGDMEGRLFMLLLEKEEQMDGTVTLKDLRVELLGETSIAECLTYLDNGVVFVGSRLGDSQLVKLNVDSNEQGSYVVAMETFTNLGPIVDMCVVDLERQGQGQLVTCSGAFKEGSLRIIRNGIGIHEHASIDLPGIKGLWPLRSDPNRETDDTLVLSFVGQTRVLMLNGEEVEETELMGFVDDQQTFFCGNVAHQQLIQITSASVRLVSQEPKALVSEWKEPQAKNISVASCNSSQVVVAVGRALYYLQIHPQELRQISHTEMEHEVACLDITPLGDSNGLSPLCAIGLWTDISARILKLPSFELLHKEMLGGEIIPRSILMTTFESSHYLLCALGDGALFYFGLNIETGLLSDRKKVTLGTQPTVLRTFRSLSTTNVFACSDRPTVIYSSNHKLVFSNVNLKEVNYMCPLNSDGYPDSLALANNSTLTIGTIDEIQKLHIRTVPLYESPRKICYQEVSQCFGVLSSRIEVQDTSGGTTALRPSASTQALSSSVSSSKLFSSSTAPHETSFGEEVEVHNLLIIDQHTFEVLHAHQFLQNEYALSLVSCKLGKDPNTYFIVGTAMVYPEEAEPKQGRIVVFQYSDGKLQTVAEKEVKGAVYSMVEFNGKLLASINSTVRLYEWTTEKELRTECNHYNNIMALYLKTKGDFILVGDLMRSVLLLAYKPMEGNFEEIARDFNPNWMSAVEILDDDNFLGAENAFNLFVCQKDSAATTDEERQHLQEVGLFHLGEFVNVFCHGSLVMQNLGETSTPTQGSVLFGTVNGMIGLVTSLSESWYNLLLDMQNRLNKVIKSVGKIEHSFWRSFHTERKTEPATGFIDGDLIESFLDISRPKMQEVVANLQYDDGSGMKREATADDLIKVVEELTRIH

Key:
[1] = system: Human myeloid monocytic leukemia cell (MV-4-11); experiment: Tumor cell proliferation inhibition (cell viability assay); conditions: MV-4-11 cells, 96 hours
CRBN = CRBN (Homo sapiens, UniProt Q96SW2); experiment: CRBN binding affinity by HTRF (CEREBLON BINDING kit); conditions: for Inhibition Rate at 0.5 µM (%) / Inhibition Rate at 2 µM (%): CRBN binding, HTRF; for Inhibition Rate at 0.5 µM (%): compound at 0.5 µM; for Inhibition Rate at 2 µM (%): compound at 2 µM
IKZF1 = IKZF1 (Homo sapiens, UniProt Q13422+Q96SW2); experiment: Western blot assay of substrate protein degradation in hPBMCs; conditions: 24 hours treatment, compounds at 50 nM and 500 nM (concentration behind the class not stated)
WEE1 = WEE1 (Homo sapiens, UniProt P30291+Q96SW2); experiment: as above; conditions: 24 hours treatment, compounds at 50 nM and 500 nM (concentration behind the class not stated)
GSPT1 = GSPT1 (Homo sapiens, UniProt P15170+Q96SW2); experiment: as above; conditions: 24 hours treatment, compounds at 50 nM and 500 nM (concentration behind the class not stated)
IKZF3 = IKZF3 (Homo sapiens, UniProt Q96SW2+Q9UKT9); experiment: as above; conditions: 24 hours treatment, compounds at 50 nM and 500 nM (concentration behind the class not stated)
IKZF2 = IKZF2 (Homo sapiens, UniProt Q96SW2+Q9UKS7); experiment: as above; conditions: 24 hours treatment, compounds at 50 nM and 500 nM (concentration behind the class not stated)
CK1α = CK1α (Homo sapiens, UniProt P48729+Q96SW2); experiment: as above; conditions: 24 hours treatment, compounds at 50 nM and 500 nM (concentration behind the class not stated)

| Inhibition Rate at 0.5 µM (%) (CRBN) | Inhibition Rate at 2 µM (%) (CRBN) | IC50 (CRBN; read-out: HTRF IC50, human Cereblon WT GST-tagged protein, 3 hours at room temperature) [µM] | Structure (SMILES) | Inhibition Rate at 10 nM (%) [1] | Inhibition Rate at 500 nM (%) [1] | substrate protein remaining % (IKZF 1) (IKZF1) | substrate protein remaining % (WEE1) (WEE1) | substrate protein remaining % (GSPT1) (GSPT1) | substrate protein remaining % (IKZF3) (IKZF3) | substrate protein remaining % (IKZF2) (IKZF2) | substrate protein remaining % (CK1a) (CK1α) |
| --- | --- | --- | --- | --- | --- | --- | --- | --- | --- | --- | --- |
| a4 (40% < a4 ≤ 53%) | a8 (80% < a8 ≤100%) |  | O=C1CCC(N2Cc3cc(CN4CCC(N5CC=C(c6cccc(Cl)c6Cl)CC5)C(F)(F)C4)ccc3C2=S)C(=O)N1 (stereo not shown) | 1a5 (30% ≤ 1a5 ≤ 40%) | 1a9 (70% ≤ 1a9 < 80%) | B (80%< substrate protein remaining %≤ 100%) | A (0% ≤ substrate protein remaining % ≤ 80%) | A (0% ≤ substrate protein remaining % ≤ 80%) | A (0% ≤ substrate protein remaining % ≤ 80%) | A (0% ≤ substrate protein remaining % ≤ 80%) | B (80%< substrate protein remaining %≤ 100%) |
| a7 (70% < a7 ≤80%) | a8 (80% < a8 ≤100%) |  | CC1(C)CCC(CN2CCN(C3CCN(CCc4ccc5c(c4)CN(C4CCC(=O)NC4=O)C5=O)CC3(F)F)CC2)=C(c2ccc(Cl)cc2)C1 (stereo not shown) |  |  | B (80%< substrate protein remaining %≤ 100%) | A (0% ≤ substrate protein remaining % ≤ 80%) | A (0% ≤ substrate protein remaining % ≤ 80%) | B (80%< substrate protein remaining %≤ 100%) | B (80%< substrate protein remaining %≤ 100%) | A (0% ≤ substrate protein remaining % ≤ 80%) |
| a1 (10% < a1 ≤ 20%) | a5 (53% < a5 ≤ 60%) |  | CC1(C)CCC(CN2CCN(C3CCN(C(=O)c4cccc5c4C(=O)N(C4CCC(=O)NC4=O)C5)CC3(F)F)CC2)=C(c2ccc(Cl)cc2)C1 (stereo not shown) |  |  | B (80%< substrate protein remaining %≤ 100%) | B (80%< substrate protein remaining %≤ 100%) | B (80%< substrate protein remaining %≤ 100%) | A (0% ≤ substrate protein remaining % ≤ 80%) | B (80%< substrate protein remaining %≤ 100%) | B (80%< substrate protein remaining %≤ 100%) |
| a4 (40% < a4 ≤ 53%) | a8 (80% < a8 ≤100%) |  | O=C1CCC(N2Cc3cc(CCCN4CCC(N5CCN(C(c6ccccc6)c6ccccc6)CC5)C(F)(F)C4)ccc3C2=O)C(=O)N1 (stereo not shown) |  |  | B (80%< substrate protein remaining %≤ 100%) | B (80%< substrate protein remaining %≤ 100%) | A (0% ≤ substrate protein remaining % ≤ 80%) | B (80%< substrate protein remaining %≤ 100%) | B (80%< substrate protein remaining %≤ 100%) | B (80%< substrate protein remaining %≤ 100%) |
| a2 (20% < a2 ≤ 30%) | a7 (70% < a7 ≤80%) |  | CC1(C)CCC(CN2CCN(C3CCN(CCCc4ccc5c(c4)CN(C4CCC(=O)NC4=O)C5=O)CC3(F)F)CC2)=C(c2ccc(Cl)cc2)C1 (stereo not shown) |  |  | B (80%< substrate protein remaining %≤ 100%) | B (80%< substrate protein remaining %≤ 100%) | A (0% ≤ substrate protein remaining % ≤ 80%) | B (80%< substrate protein remaining %≤ 100%) | A (0% ≤ substrate protein remaining % ≤ 80%) | B (80%< substrate protein remaining %≤ 100%) |
| a2 (20% < a2 ≤ 30%) | a5 (53% < a5 ≤ 60%) |  | CC1(C)CCC(CN2CCN(C3CCN(Cc4ccc5c(c4)CN(C4CCC(=O)NC4=O)C5=S)CC3(F)F)CC2)=C(c2ccc(Cl)cc2)C1 (stereo not shown) |  |  | A (0% ≤ substrate protein remaining % ≤ 80%) | A (0% ≤ substrate protein remaining % ≤ 80%) | A (0% ≤ substrate protein remaining % ≤ 80%) | B (80%< substrate protein remaining %≤ 100%) | B (80%< substrate protein remaining %≤ 100%) | B (80%< substrate protein remaining %≤ 100%) |
| a4 (40% < a4 ≤ 53%) | a8 (80% < a8 ≤100%) |  | O=C1CCC(N2Cc3ccc(CN4CCC(N5CCN(c6cccc(Cl)c6Cl)CC5)CC4)cc3C2=S)C(=O)N1 (stereo not shown) | 1a8 (60% ≤ 1a8 < 70%) | 1a9 (70% ≤ 1a9 < 80%) |  |  |  |  |  |  |

The next lines start with the compound.

| Structure (SMILES) | Inhibition Rate at 0.5 µM (%) (CRBN) | Inhibition Rate at 2 µM (%) (CRBN) | IC50 (CRBN; read-out: HTRF IC50, human Cereblon WT GST-tagged protein, 3 hours at room temperature) [µM] | Inhibition Rate at 10 nM (%) [1] | Inhibition Rate at 500 nM (%) [1] | substrate protein remaining % (IKZF 1) (IKZF1) | substrate protein remaining % (WEE1) (WEE1) | substrate protein remaining % (GSPT1) (GSPT1) | substrate protein remaining % (IKZF3) (IKZF3) | substrate protein remaining % (IKZF2) (IKZF2) | substrate protein remaining % (CK1a) (CK1α) |
| --- | --- | --- | --- | --- | --- | --- | --- | --- | --- | --- | --- |
| O=C1CCC(N2Cc3c(C(=O)N4CCC(N5CCN(C(c6ccccc6)c6ccccc6)CC5)CC4)cccc3C2=O)C(=O)N1 (stereo not shown) | a3 (30% < a3 ≤ 40%) | a6 (60% < a6 ≤ 70%) |  | 1a5 (30% ≤ 1a5 ≤ 40%) | 1a9 (70% ≤ 1a9 < 80%) | B (80%< substrate protein remaining %≤ 100%) | B (80%< substrate protein remaining %≤ 100%) | A (0% ≤ substrate protein remaining % ≤ 80%) | B (80%< substrate protein remaining %≤ 100%) | B (80%< substrate protein remaining %≤ 100%) | B (80%< substrate protein remaining %≤ 100%) |
| O=C1CCC(N2Cc3ccc(C(=O)N4CCC(N5CCN(c6noc7cc(F)ccc67)CC5)CC4)cc3C2=O)C(=O)N1 (stereo not shown) |  |  |  | 1a5 (30% ≤ 1a5 ≤ 40%) | 1a7 (50% ≤ 1a7 < 60%) | B (80%< substrate protein remaining %≤ 100%) | B (80%< substrate protein remaining %≤ 100%) | A (0% ≤ substrate protein remaining % ≤ 80%) | B (80%< substrate protein remaining %≤ 100%) | B (80%< substrate protein remaining %≤ 100%) | B (80%< substrate protein remaining %≤ 100%) |
| O=C1CCC(N2Cc3cc(C(=O)N4CCC(N5CCN(c6noc7cc(F)ccc67)CC5)CC4)c(F)cc3C2=O)C(=O)N1 (stereo not shown) |  |  |  | 1a5 (30% ≤ 1a5 ≤ 40%) | 1a8 (60% ≤ 1a8 < 70%) | B (80%< substrate protein remaining %≤ 100%) | A (0% ≤ substrate protein remaining % ≤ 80%) | A (0% ≤ substrate protein remaining % ≤ 80%) | B (80%< substrate protein remaining %≤ 100%) | B (80%< substrate protein remaining %≤ 100%) | A (0% ≤ substrate protein remaining % ≤ 80%) |
| O=C1CCC(N2Cc3cccc(C(=O)N4CCC(N5CCN(c6noc7cc(F)ccc67)CC5)CC4)c3C2=O)C(=O)N1 (stereo not shown) |  |  |  | 1a8 (60% ≤ 1a8 < 70%) | 1a8 (60% ≤ 1a8 < 70%) | B (80%< substrate protein remaining %≤ 100%) | B (80%< substrate protein remaining %≤ 100%) | A (0% ≤ substrate protein remaining % ≤ 80%) | B (80%< substrate protein remaining %≤ 100%) | B (80%< substrate protein remaining %≤ 100%) | B (80%< substrate protein remaining %≤ 100%) |
| O=C1CCC(N2Cc3c(CN4CCC(N5CCN(c6cccc(Cl)c6Cl)CC5)CC4)cccc3C2=S)C(=O)N1 (stereo not shown) |  |  |  | 1a3 (10% ≤ 1a3 < 20%) | 1a7 (50% ≤ 1a7 < 60%) | B (80%< substrate protein remaining %≤ 100%) | B (80%< substrate protein remaining %≤ 100%) | A (0% ≤ substrate protein remaining % ≤ 80%) | B (80%< substrate protein remaining %≤ 100%) | A (0% ≤ substrate protein remaining % ≤ 80%) | A (0% ≤ substrate protein remaining % ≤ 80%) |
| O=C1CCC(N2Cc3c(ccc(CN4CCC(N5CCN(C(c6ccccc6)c6ccccc6)CC5)CC4)c3F)C2=O)C(=O)N1 (stereo not shown) |  |  | 0.5 to 1 |  |  | B (80%< substrate protein remaining %≤ 100%) | B (80%< substrate protein remaining %≤ 100%) | A (0% ≤ substrate protein remaining % ≤ 80%) | A (0% ≤ substrate protein remaining % ≤ 80%) | A (0% ≤ substrate protein remaining % ≤ 80%) | A (0% ≤ substrate protein remaining % ≤ 80%) |
